In publication PMC5693757 (Journal of molecular biology, 2017):

Columns and labels:
[1] = biological target: human GST-TBCD (tubulin-specific chaperone D, GST tag kept) (human, UniProt Q9BTW9-1); assay: pull-down
[2] = biological target: human TBCD after removal of the GST tag with TEV protease (human, UniProt Q9BTW9-1); assay: SEC

B1: human ARL2 (ARF-like 2) (natural protein)
chain: MGLLTILKKMKQKERELRLLMLGLDNAGKTTILKKFNGEDIDTISPTLGFNIKTLEHRGFKLNIWDVGGQKSLRSYWRNYFESTDGLIWVVDSADRQRMQDCQRELQSLLVEERLAGATLLIFANKQDLPGALSSNAIREVLELDSIRSHHWCIQGCSAVTGENLLPGIDWLLDDISSRIFTAD
- binding result [1]: binds
- binding result [2]: binds
